From ChEMBL document CHEMBL3085673, “The design of a novel series of muscarinic receptor antagonists leading to AZD8683, a potential inhaled treatment for COPD” (Bioorg Med Chem Lett, 2013)

Sequences of proteins named here, by UniProt entry; tags and fusion partners are left off.
UniProt P20309, whole entry: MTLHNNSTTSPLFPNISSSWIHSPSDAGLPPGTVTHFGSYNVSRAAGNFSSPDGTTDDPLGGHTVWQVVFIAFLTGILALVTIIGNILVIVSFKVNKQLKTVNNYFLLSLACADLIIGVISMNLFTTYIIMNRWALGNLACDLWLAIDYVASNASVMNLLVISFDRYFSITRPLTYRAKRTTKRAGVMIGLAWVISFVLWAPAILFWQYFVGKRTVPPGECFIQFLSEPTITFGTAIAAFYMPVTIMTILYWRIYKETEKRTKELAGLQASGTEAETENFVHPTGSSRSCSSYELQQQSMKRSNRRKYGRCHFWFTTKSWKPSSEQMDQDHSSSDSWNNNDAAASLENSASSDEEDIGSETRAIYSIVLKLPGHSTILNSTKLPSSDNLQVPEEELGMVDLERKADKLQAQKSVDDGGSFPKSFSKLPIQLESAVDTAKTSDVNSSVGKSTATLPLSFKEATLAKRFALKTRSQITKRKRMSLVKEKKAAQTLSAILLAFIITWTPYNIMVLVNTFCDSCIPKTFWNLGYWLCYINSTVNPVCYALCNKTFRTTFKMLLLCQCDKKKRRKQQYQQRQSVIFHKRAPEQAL

Target: Muscarinic acetylcholine receptor M3 (Homo sapiens, UniProt P20309)
Experiment: Displacement of [3H]NMS from recombinant human M3 receptor expressed in CHO-K1 cells after 16 hrs by SPA method

SMILES: O=C(O[C@H]1CN2CCC1CC2)C1(c2cccs2)CCCCCC1
- pIC50: 10.1
